{
  "source": "patent US8765138B2",
  "about": "(priority 2004, dated 2014)",
  "key": {"HCV RNA replicon": {"tested_on": "HCV RNA replicon", "experiment": "HCV RNA replicon assay in Huh7 ET cells", "assay_type": "cell-based", "details": "High Test Conc. 2, IFN control"}, "Huh7 ET": {"tested_on": "Huh7 ET", "experiment": "Cytotoxicity in Huh7 ET cells (HCV replicon assay)", "details": "High Test Conc. 2, IFN control"}},
  "note": "“And” between values parts separate entries of the source, which are not always exact repeats. Identical values can stand only once.",
  "data": [
    {"substance": "IFN alpha-2b: IFN alpha-2b, control in the HCV RNA replicon assay", "values": [
      {"measurement": "EC90", "setting": "HCV RNA replicon; Confirmatory dose response", "value": "0.54 Fold Dilution and 0.38 Fold Dilution"},
      {"measurement": "Actvty % inhib. virus control", "setting": "HCV RNA replicon; Primary Assay, single dose", "value": "94.7% and 85.6%"},
      {"measurement": "Cytotoxicity % cell control", "setting": "Huh7 ET; Primary Assay, single dose", "value": "95.1% and 81.6%"},
      {"measurement": "IC90", "setting": "Huh7 ET; cytotoxicity, Confirmatory dose response", "value": ">2.0 Fold Dilution and >2 Fold Dilution"}
    ]}
  ]
}
